# Tests used:
# Chains of the proteins cited; added tags and fusions are not shown. Residues count along the entry.
# UniProt P23458, 875-1153: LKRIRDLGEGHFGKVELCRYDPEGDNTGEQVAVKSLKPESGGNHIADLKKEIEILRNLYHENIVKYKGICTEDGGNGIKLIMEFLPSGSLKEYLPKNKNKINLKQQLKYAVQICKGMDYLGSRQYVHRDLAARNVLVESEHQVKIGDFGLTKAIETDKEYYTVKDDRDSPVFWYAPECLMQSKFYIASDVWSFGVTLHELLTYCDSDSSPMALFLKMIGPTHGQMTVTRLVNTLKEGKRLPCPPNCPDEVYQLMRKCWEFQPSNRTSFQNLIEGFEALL
# UniProt O60674, 849-1124: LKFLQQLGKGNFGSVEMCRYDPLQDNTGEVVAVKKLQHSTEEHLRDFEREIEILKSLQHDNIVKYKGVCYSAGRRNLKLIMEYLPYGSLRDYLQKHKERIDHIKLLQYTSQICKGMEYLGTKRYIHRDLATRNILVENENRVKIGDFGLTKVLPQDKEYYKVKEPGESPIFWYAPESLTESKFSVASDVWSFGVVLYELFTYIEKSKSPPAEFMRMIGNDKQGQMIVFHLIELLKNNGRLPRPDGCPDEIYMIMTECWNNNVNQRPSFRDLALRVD
# JAK1 = JAK1 (Homo sapiens (Human), UniProt P23458); test: Jak biochemical HTRF assay, JAK1; settings: recombinant purified GST-tagged catalytic domain; HTRF format; [ATP] 31.8 μM
# Source text: (§1) Jak Biochemical HTRF Assay Protocol
# (§2) Subsequent reagent additions employed an Agilent Bravo.
# JAK2 = JAK2 (Homo sapiens (Human), UniProt O60674); test: Jak biochemical HTRF assay, JAK2; settings: recombinant purified GST-tagged catalytic domain; HTRF format; [ATP] 8.5 μM
# Source text: as §1, §2
SMILES,IC50 (JAK1) [nM],IC50 (JAK2) [nM]
"C[C@](O)(c1ccc(Nc2nn([C@H]3COCC[C@@H]3C#N)cc2C(N)=O)cc1)C(F)F (single isomer, unassigned) [Example 9-16, 1-[(3R,4S or 3S,4R)-4-cyanotetrahydro-2H-pyran-3-yl]-3-({4-[(1S or 1R)-2,2-difluoro-1-hydroxy-1-methylethyl]phenyl}amino)-1H-pyrazole-4-carboxamide]",0.03,0.2
"C[C@@](O)(c1ccc(Nc2nn([C@H]3COCC[C@@H]3C#N)cc2C(N)=O)cc1)C(F)F (single isomer, unassigned) [Example 9-17, 1-[(3R,4S or 3S,4R)-4-cyanotetrahydro-2H-pyran-3-yl]-3-({4-[(1R or 1S)-2,2-difluoro-1-hydroxy-1-methylethyl]phenyl}amino)-1H-pyrazole-4-carboxamide]",0.05,0.2
"C[C@](O)(c1ccc(Nc2nn([C@@H]3COCC[C@H]3C#N)cc2C(N)=O)cc1)C(F)F (single isomer, unassigned) [Example 9-18, 1-[(3S,4R or 3R,4S)-4-cyanotetrahydro-2H-pyran-3-yl]-3-({4-[(1S or 1R)-2,2-difluoro-1-hydroxy-1-methylethyl]phenyl}amino)-1H-pyrazole-4-carboxamide]",3,12
"N#C[C@H]1CCOC[C@@H]1n1cc(C(N)=O)c(Nc2ccc([C@@H](O)C(F)(F)F)cc2)n1 (single isomer, unassigned) [Example 9-8, 1-[(3R,4S or 3S,4R)-4-cyanotetrahydro-2H-pyran-3-yl]-3-({4-[(1R or 1S)-2,2,2-trifluoro-1-hydroxyethyl]phenyl}amino)-1H-pyrazole-4-carboxamide]",0.09,0.6

# More lines, in order of falling IC50 (JAK1), values ahead:
IC50 (JAK1) [nM],IC50 (JAK2) [nM],SMILES
7,75,"N#C[C@@H]1CN(Cc2cnccn2)CC[C@H]1n1cc(C(N)=O)c(Nc2ccc(F)cc2)n1 (racemic) [Example 6-23, 1-[(3R,4R and 3S,4S)-3-cyano-1-(pyrazin-2-ylmethyl)piperidin-4-yl]-3-[(4-fluorophenyl)amino]-1H-pyrazole-4-carboxamide]"
4,27,"N#C[C@@H]1CCOC[C@H]1n1cc(C(N)=O)c(Nc2ccc([C@H](O)C(F)(F)F)cc2)n1 (single isomer, unassigned) [Example 9-7, 1-[(3S,4R or 3R,4S)-4-cyanotetrahydro-2H-pyran-3-yl]-3-({4-[(1S or 1R)-2,2,2-trifluoro-1-hydroxyethyl]phenyl}amino)-1H-pyrazole-4-carboxamide]"
